# Measurements from PubChem BioAssay AID651768 (National Center for Advancing Translational Sciences (NCATS), 2012).
# Amino acid sequences for entries named in this document (tags omitted).
# UniProt Q14191, whole entry, looked up: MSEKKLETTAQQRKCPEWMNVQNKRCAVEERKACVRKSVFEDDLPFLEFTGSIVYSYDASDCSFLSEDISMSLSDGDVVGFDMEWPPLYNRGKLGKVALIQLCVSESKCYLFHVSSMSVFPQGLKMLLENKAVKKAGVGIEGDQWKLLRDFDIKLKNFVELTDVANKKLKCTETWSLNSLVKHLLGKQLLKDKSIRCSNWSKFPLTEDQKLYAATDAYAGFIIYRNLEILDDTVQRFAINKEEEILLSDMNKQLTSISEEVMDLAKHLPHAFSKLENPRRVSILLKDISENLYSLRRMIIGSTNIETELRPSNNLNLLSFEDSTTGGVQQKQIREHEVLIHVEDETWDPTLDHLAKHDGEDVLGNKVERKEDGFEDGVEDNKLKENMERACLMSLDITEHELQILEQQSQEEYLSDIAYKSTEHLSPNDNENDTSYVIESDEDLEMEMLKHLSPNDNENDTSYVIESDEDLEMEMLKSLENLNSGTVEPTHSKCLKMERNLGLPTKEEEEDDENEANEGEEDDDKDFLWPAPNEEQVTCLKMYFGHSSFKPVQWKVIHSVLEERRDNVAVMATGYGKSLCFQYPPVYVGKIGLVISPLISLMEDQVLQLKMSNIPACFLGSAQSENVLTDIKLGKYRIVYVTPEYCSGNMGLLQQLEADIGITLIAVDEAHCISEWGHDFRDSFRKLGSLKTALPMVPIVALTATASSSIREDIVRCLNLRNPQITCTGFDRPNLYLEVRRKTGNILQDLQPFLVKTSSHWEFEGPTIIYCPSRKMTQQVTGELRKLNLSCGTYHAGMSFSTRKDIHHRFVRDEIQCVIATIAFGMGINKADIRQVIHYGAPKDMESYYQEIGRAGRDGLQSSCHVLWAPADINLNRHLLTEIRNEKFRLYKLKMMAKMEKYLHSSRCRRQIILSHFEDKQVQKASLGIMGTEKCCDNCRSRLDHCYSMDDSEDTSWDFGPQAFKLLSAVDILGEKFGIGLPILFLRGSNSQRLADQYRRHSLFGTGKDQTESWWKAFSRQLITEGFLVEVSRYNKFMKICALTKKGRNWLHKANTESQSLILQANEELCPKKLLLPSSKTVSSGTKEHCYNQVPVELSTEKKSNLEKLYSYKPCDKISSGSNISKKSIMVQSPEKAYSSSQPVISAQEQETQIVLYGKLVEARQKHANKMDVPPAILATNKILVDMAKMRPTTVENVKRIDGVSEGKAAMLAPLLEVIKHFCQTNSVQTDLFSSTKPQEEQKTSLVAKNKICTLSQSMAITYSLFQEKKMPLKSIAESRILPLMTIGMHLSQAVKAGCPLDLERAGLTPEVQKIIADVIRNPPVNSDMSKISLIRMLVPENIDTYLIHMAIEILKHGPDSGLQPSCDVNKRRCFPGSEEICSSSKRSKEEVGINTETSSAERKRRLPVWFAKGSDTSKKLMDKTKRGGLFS
# Only a part is listed here, and it is no random draw. Active and inactive are the calls of the source. Calls come from the whole dose curve; as a rule, active = well fitted inhibition curve with a large enough effect; inconclusive = small, poorly fitted or top-dose-only effect; inactive = no such curve, though single readings can be large or run the other way.
# Molecular target: Bifunctional 3'-5' exonuclease/ATP-dependent helicase WRN (Homo sapiens) (UniProt Q14191)
# Test: qHTS for Inhibitors of WRN Helicase; note: nearly all actives have a fitted effect of over 55% in size
# Conditions: WRN helicase unwinding, fluorescent forked duplex, kinetic; series mostly up to 114 µM; activity change, negative = inhibition: at the top concentration
# Summary of the method: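 Fluorescence dequenching readout, ex 525 nm/em 598 nm, kinetic mode: forked duplex DNA (100 nM final) with adjacent fluorophore and quencher unwound by WRN (20 nM final) with 2 mM ATP. Compound preincubation 15 min, room temperature.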
# % is set by controls: 0 for no effect and ±100 for the full control effect; potency is the fitted concentration of half-maximal effect.
SMILES,"activity change, negative = inhibition",Potency
N#CCCN(C(=O)COC(=O)C(O)(c1ccccc1)c1ccccc1)c1ccc(F)cc1,inactive: -4.25%,
CN(C(=O)Cc1ccccc1)[C@@H]1CC[C@]2(CCCO2)C[C@H]1N1CCCC1,inactive: -1.82%,
CCOP1(=S)c2c(C)nn(CCC#N)c2N=C(c2ccc(F)cc2)N1C (stereo not drawn),inactive: -10.7%,
COc1cc(C(=O)NCC2(N3CCOCC3)CCCCC2)cc(Cl)c1OC(C)C,inactive: 2.91% [at 57.1 µM],
O=[As](O)(O)c1cccnc1,inactive: -2.88%,
CS(=O)(=O)c1ccc(Cl)c(NC(=O)COC(=O)C(O)(c2ccccc2)c2ccccc2)c1,inactive: -27.6%,
O=C(OC1CN2CCC1CC2)c1ccc(Cl)cc1 (stereo not drawn),inactive: 3.1%,
O=[As](O)(c1cccc(O)c1)c1cccc(O)c1,inactive: -5.06%,
Cc1cccc(OCC(=O)OC2CN3CCC2CC3)c1 (stereo not drawn),inactive: -1.94% [at 57.1 µM],
CCCOP(=S)(Nc1nc(N)cc(=O)[nH]1)OCCC,inactive: 0.366%,
Nc1cccc2c([As](=O)(O)O)cccc12,inactive: -7.97% [at 11.6 µM],
Cc1ccc(NCCc2c([N+](=O)[O-])cc([N+](=O)[O-])cc2[N+](=O)[O-])cc1,inactive: -25.9%,
COc1cc(C2NCCC3(OCCO3)C2(C)C)cc(OC)c1OC (stereo not drawn),inactive: -13.4%,
CCOP(=O)(Nc1cccc2ccccc12)OCC,inactive: -2.25%,
O=C(OC1CN2CCC1CC2)C12CC3CC(CC(C3)C1)C2 (stereo not drawn),inactive: -1.54%,
Cc1cc(=O)[nH]c(N[N+](=O)[O-])n1,inactive: -6.46%,
Cc1c2c(nc3ccccc13)SC(C(Cl)Cl)C2 (stereo not drawn),inactive: -4.79%,
COc1ccc2nc(NP(=O)(c3ccccc3)c3ccccc3)sc2c1,inactive: -4.63%,
COc1cc(I)ccc1[As](=O)(O)O,inactive: -2.12%,
O=P1(N(CCCl)CCCl)OCCCN1CCCl (stereo not drawn),inactive: -2.96%,
O=P1(N(CCCl)CCCl)Nc2ccccc2N1,inactive: 1.05%,
COc1ccc(N/C(=N/P(=O)(N2CCOCC2)N2CCOCC2)N2CCOCC2)cc1,inactive: 7.19%,
O=[N+]([O-])c1cc(Oc2ccc([N+](=O)[O-])cc2C(F)(F)F)cc([N+](=O)[O-])c1,inactive: -3.07%,

SMILES,"activity change, negative = inhibition",Potency
C[As](=O)(O)c1cccc(C(=O)O)c1,inactive: 6.77%,
O=[As](O)(c1ccc(O)cc1)c1ccccc1O,inactive: -2.71%,
COc1cc(C(=O)NCC2(N3CCOCC3)CCCCC2)ccc1OCC(C)C,inactive: -1.03%,
Cc1ccc2nc3c(c(C)c2c1)CC(C(Cl)Cl)S3 (stereo not drawn),inactive: -19.4% [at 57.1 µM],
[N-]=[N+]=NC1CCCCC1NC(=O)c1cc([N+](=O)[O-])cc([N+](=O)[O-])c1 (stereo not drawn),inactive: 5.85%,
Cc1ccc(OP(=O)(Nc2ccc([N+](=O)[O-])cn2)Oc2ccc(C)cc2)cc1,inactive: 7.25%,
CC(C)c1ccc(OP(=O)(Nc2ccccn2)Oc2ccccc2F)cc1 (stereo not drawn),inactive: -8.44%,
COC(=O)C1(C)COP(=O)(N2CCCCCC2)OC1 (stereo not drawn),inactive: 0.214%,
ClCCSc1nnc(-c2cccnc2)o1,inactive: 6.41%,
O=C(OC1CN2CCC1CC2)c1cccc2[nH]cnc12 (stereo not drawn),inactive: 2.86%,
CCN(CC)C(=S)SC(NC=O)C(Cl)(Cl)Cl (stereo not drawn),inactive: 0.155%,
CC(C)NC(=O)NP(=O)(Oc1ccccc1)Oc1ccccc1,inactive: -0.755%,
O=[N+]([O-])c1cc([N+](=O)[O-])c(-c2ccn[nH]2)s1,inactive: -9%,
CC1CCNP(=O)(N(CCCl)CCCl)O1 (stereo not drawn),inactive: -16.1%,
CCOC(=O)Nc1ccc([As](=O)(O)O)c(O)c1,inactive: 6.59%,
O=C(O)C(O)c1ccc(N(CCCl)CCCl)cc1 (stereo not drawn),inactive: -9.92%,
CCCCOc1ccc(C(=O)NCC2(N3CCCCC3)CCCCC2)cc1OC,inactive: 4.63%,
Cc1cc(SC(NC(=O)c2ccccc2)C(Cl)(Cl)Cl)nc(C(C)C)n1 (stereo not drawn),inactive: -29.2%,
COP(=O)(OC)N1CC1c1ccccc1 (stereo not drawn),inactive: -0.981%,
CCOC(=O)Nc1cccc([As](=O)(O)O)c1,inactive: 6.04%,
O=[N+]([O-])c1ccc(Nc2ccc(Oc3ccc([N+](=O)[O-])cc3[N+](=O)[O-])cc2)c([N+](=O)[O-])c1,inactive: -1.97%,
O=P(Nc1ccccn1)(c1cccc2ccccc12)c1cccc2ccccc12,inactive: -6.06%,
Cc1cc(SC(NC=O)C(Cl)(Cl)Cl)ncn1 (stereo not drawn),,active: 50.1 µM

SMILES,"activity change, negative = inhibition",Potency
COP1(=S)c2c(C)nn(CCC#N)c2N=C(c2ccc(F)cc2)N1C (stereo not drawn),inactive: 1.79%,
COC(=O)C1(C)COP(=O)(N2CCCC2)OC1 (stereo not drawn),inactive: 2.92% [at 57.1 µM],
O=C(COc1ccccc1)OC1CN2CCC1CC2 (stereo not drawn),inactive: 0.36%,
O=C(Nc1ccncc1[N+](=O)[O-])c1ccc([N+](=O)[O-])cc1[N+](=O)[O-],inactive: 1.04%,
O=C(O)C(=O)c1ccc(N(CCCl)CCCl)cc1,inactive: 2.04%,
CCOC(=O)c1ccc(NC(=O)C(C)(CCl)SC)cc1 (stereo not drawn),inactive: -6.3%,
O=C(OC1CN2CCC1CC2)c1cccc([N+](=O)[O-])c1 (stereo not drawn),inactive: 2.91%,
CSc1ccc(Nc2c([N+](=O)[O-])cc([N+](=O)[O-])cc2[N+](=O)[O-])cc1,inactive: -5.85%,
CCC(C)N(CC(C)C)C(=S)SC(NC(C)=O)C(Cl)(Cl)Cl (stereo not drawn),inactive: -5.31%,
COc1ccc(C2=NCC(CBr)S2)cc1 (stereo not drawn),inactive: -15.4%,
O=[N+]([O-])c1cccc2n[nH]nc12,inactive: 8.93%,
CC(=O)N1C2C3N(C(C)=O)C1C1N(C(C)=O)C(C(N1C(C)=O)N3C(C)=O)N2C(C)=O,inactive: 3.39%,
Cc1ccc(NP(=O)(Oc2ccccc2)Oc2ccccc2)nc1,inactive: -2.03% [at 57.1 µM],
CCc1nc2c(n1)c1c(non1O)c1c2no[n+]1[O-],inactive: -11.2% [at 57.1 µM],
O=[N+]([O-])c1cc([N+](=O)[O-])c(CCNc2ccccc2)c([N+](=O)[O-])c1,inactive: -14%,
Nc1ccc([As](=O)(O)c2ccc(N)cc2)cc1,inactive: 2.84%,
CCN(/C(=N/P(=O)(N1CCOCC1)N1CCOCC1)N1CCOCC1)c1ccc(OC)cc1,inactive: -27.5% [at 57.1 µM],
CC(C)=N/N=C(\N)N[N+](=O)[O-],inactive: -7.35%,
CC(C)c1nc(Nc2ccccc2)n(P(=O)(N(C)C)N(C)C)n1,inactive: 2.02%,
CN(C)C(=O)OCCc1n(C)cc[n+]1C,inactive: -0.574%,
c1cc(-c2nn[nH]n2)ccc1-c1nn[nH]n1,inactive: 4.28%,
CC1CCN(C(=O)Oc2c(Cl)cc(Cl)c3cccnc23)CC1,inactive: -3.16%,
